Experimental data published in PubChem BioAssay AID1497 (Sanford-Burnham Center for Chemical Genomics, 2009).
The entries are a selection whose mix differs from that of the whole data set. Calls of active or inactive are those of the source.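 How the source made its calls: active means primary inhibition of 50% or more at 10 µM, then 40% or more on retest; inactive means the rest.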

The chains behind the UniProt entries cited, without tags or fusion partners.
UniProt P05107, whole entry, looked up: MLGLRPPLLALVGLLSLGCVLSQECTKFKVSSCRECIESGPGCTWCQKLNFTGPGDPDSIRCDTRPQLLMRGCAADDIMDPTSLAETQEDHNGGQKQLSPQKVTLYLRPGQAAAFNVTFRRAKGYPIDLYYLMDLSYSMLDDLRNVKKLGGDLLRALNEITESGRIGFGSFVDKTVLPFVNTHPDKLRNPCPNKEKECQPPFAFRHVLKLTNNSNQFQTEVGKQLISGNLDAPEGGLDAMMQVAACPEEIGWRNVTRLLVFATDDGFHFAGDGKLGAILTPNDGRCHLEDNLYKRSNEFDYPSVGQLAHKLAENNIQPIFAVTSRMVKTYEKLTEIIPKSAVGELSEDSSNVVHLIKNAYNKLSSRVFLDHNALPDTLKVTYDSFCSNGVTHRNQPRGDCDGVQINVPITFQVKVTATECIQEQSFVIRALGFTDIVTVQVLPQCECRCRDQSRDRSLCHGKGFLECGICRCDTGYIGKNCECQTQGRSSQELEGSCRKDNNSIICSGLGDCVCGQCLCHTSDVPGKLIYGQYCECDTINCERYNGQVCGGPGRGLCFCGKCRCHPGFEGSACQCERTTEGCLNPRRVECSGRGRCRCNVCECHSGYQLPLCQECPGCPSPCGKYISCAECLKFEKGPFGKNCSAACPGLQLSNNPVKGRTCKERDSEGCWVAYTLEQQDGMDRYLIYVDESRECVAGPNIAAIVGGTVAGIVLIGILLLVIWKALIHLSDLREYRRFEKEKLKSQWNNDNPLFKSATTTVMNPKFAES

The compounds below were run against Integrin beta-2 (Homo sapiens) + Integrin alpha-M (Homo sapiens) (UniProt P05107+P11215) (assay: antagonists of integrin CD11b/CD18-fibrinogen binding – K562 cells, luminescence, primary screen (AID 1497)). Conditions: K562 CD11b/CD18 adhesion to fibrinogen, ATPlite luminescence; at 10 µM; hits give high values; Mn2+ added to activate the integrin.

| SMILES | inhibition |
| --- | --- |
| CCOc1ncccc1C(=O)NCC1(N2CCOCC2)CCCCC1 | inactive: -17.2% |
| CCC(CO)(C(=O)OC1CN2CCC1CC2)c1ccccc1 (stereo not given) | inactive: 12.8% |
| Fc1ccccc1NC1CCN(Cc2ccccc2)CC1 | inactive: 5% |
| c1ccc(CN2CCC(Nc3ccccc3)CC2)cc1 | inactive: -14.1% |
| N/C(=N\O)c1c(N)no[n+]1[O-] | inactive: -9% |
| N#CC1(Nc2ccccc2)CCN(CCc2ccccc2)CC1 | inactive: 12.4% |
| O=C(NCC1(N2CCOCC2)CCCCC1)c1cc(=O)[nH]c2ccccc12 | inactive: 18.7% |
| COc1ccc(NC2CCN(CCc3ccccc3)CC2)c(OC)c1 | inactive: 5.1% |
| O=C(NCC1(N2CCOCC2)CCCCC1)c1cc2ccccc2o1 | inactive: -12.3% |
| O=C(OC1CN2CCC1CC2)C1c2ccccc2Oc2ccccc21 (stereo not given) | inactive: -7.4% |
